Columns and labels:
[1] = test system: gastrointestinal lipases (gastric lipase, carboxylester lipase, pancreatic lipase); settings: cited from earlier work
[2] = Gastrointestinal side effects after a fatty meal (pizza and ice cream) in a healthy person; settings: 1 capsule (120 mg), then 2 pieces of pizza and a bowl of ice cream

For `CCCCCCCCCCC[C@@H](C[C@@H]1OC(=O)[C@H]1CCCCCC)OC(=O)[C@H](CC(C)C)NC=O`, the “fraction of normal lipase activity inhibited” value [1] is listed as “about ⅓”, the “duration of passing bright orange oil after diarrhea stopped” value [2] is listed as “about 2 hours” and the “time to onset of severe cramping” value [2] is listed as at most 1 h.

From patent US20090023682A1, “Composition Comprising Dietary Fat Complexer and Methods of Using Same” (published 2009)
